# pIC50: −log10 of the molar value.
# Test system: BMP response element (BRE) luciferase reporter in HuH7 cells, BMP6 stimulated
# Test: BMP signaling reporter gene assay
# Format: cell-based
# Conditions: Homo sapiens, Huh-7, 5 h, read-out: MSD BMP RGA IC50
row,pIC50,Compound
1,6.90,"CC(C)N1CCC(c2ccc(-c3cnc(N)c(C(=O)N[C@H]4CC[C@H](O)CC4)c3)cc2)C1 (stereo partly shown) [Example 12, 2-amino-N-((1r,4r)-4-hydroxycyclohexyl)-5-(4-(1-isopropylpyrrolidin-3-yl)phenyl)nicotinamide]"
2,5.70,"Nc1ncc(-c2ccc(C3CCNC3)cc2)cc1C(=O)N[C@H]1CC[C@H](O)CC1 (stereo partly shown) [Example 18, 2-amino-N-((1r,4r)-4-hydroxycyclohexyl)-5-(4-(pyrrolidin-3-yl)phenyl)nicotinamide]"
3,6.10,"Nc1ncc(-c2ccc(N3CCOCC3)cc2)cc1C(=O)NC1CCCCC1 [Example 49, 2-amino-N-cyclohexyl-5-(4-morpholinophenyl)nicotinamide]"
4,6.72,"C[C@@H]1CCCN1Cc1ccc(-c2cnc(N)c(C(=O)N[C@H]3CC[C@](C)(O)CC3)c2)cc1 [Example 72, 2-amino-N-((1r,4R)-4-hydroxy-4-methylcyclohexyl)-5-(4-(((R)-2-methylpyrrolidin-1-yl)methyl)phenyl)nicotinamide]"
